Measured values from BindingDB's records for doi:10.1016/j.bmcl.2011.06.080 (Johnson & Johnson Pharmaceutical Research and Development, 2011).

Test: Antagonist activity at CCR2 in human THP1 cells assessed as inhibition of MCP1-induced chemotaxis after 3 hrs

CN(C)c1cccc([C@]2(O)CC[C@@H](N3CC(NC(=O)CNC(=O)c4cccc(C(F)(F)F)c4)C3)CC2)c1
IC50: 22 nM
